{
  "source": "patent US7282508B2",
  "about": "“Substituted 4-phenyl-4-(1H-imidazol-2-yl)-piperidine derivatives and their use as selective non-peptide delta opioid agonists” (Janssen Pharmaceutica N.V., priority 2001, dated 2007)",
  "target": "cloned human δ opioid receptor (Homo sapiens, UniProt P41143)",
  "assay": "Radioligand binding, competitive inhibition of [3H]DPDPE",
  "details": "Table 7; C6 glioma cell membranes, [3H]DPDPE 2 nM",
  "data": [
    {"smiles": "COC(=O)c1ccc(Cn2ccnc2C2(c3ccccc3)CCN(c3nc4ccccc4o3)CC2)cc1", "values": [
      {"measurement": "Agonist receptor binding (pIC50) delta", "result": 8.5}
    ]}
  ]
}
